Bioassay records (PubChem)
DT40 TDP1 CPT: DT40-hTDP1 cell growth loss with CPT; chicken DT40 Tdp1-/-;hTDP1 cells + 20 nM CPT, ATP luminescence, 48 h; Potency, µM (doses to about 46.2 µM), usual class: inhibitors; hit rate 12% among 420,000; note: nearly all actives have a fitted effect of over 55% in size
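Cell growth measured by CellTiter-Glo luminescence after a minimum 48 h, 37 C compound exposure with 20 nM CPT in Tdp1-knockout DT40 cells stably expressing hTDP1, seeded 400/well; qHTS titration format.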
uPA surface inh: inhibitors of cell surface uPA generation | cell surface uPA generation assay, qHTS | Potency, µM (doses to about 38.3 µM), usual class: inhibitors | hit rate 0.31% among 330,000 | AID 540303; active = well fitted inhibition curve with a large enough effect; inconclusive = small, poorly fitted or top-dose-only effect; inactive = no such curve, though single readings can be large or run the other way; tested in mouse RAW 264.7 cells; note: nearly all actives have a fitted effect of over 55% in size
miR-21 reporter: miR-21 reporter, rising signal; HeLa miR-21 FLuc reporter, luciferase, 48 h; Potency, µM (top dose mostly 38.3 µM); 340,000 tested, under 10 active; active = well fitted rising curve with a large enough effect; inconclusive = small, poorly fitted or top-dose-only effect; inactive = no such curve, though single readings can be large or run the other way;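 further: miR-21 action dims this reporter so a rising signal means less miR-21 action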
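Luminescence from a firefly luciferase reporter carrying a miR-21 binding site downstream, stably expressed under a CMV promoter in HeLa cells that make miR-21 endogenously, reports miRNA modulation after 48 h compound exposure up to approximately 40uM final.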
TDP1 cell noCPT: qHTS for Inhibitors of human tyrosyl-DNA phosphodiesterase 1 (TDP1): qHTS in cells in absence of CPT | DT40 Tdp1-/- hTDP1 cells, no CPT, ATP luminescence, 48 h | Potency, µM (top dose mostly 46.2 µM), hits mostly inhibitors | hit rate 15% among 420,000; note: nearly all actives have a fitted effect of over 55% in size
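No-CPT arm: Tdp1-/-;hTDP1 DT40 cells (400/well) plus compounds, incubated ≥48 hr at 37 °C. Readout CellTiter-Glo luminescence.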
TDP1 inh: inhibitors of human tyrosyl-DNA phosphodiesterase TDP1; hit rate 0.28% among 350,000; AID 485290; Potency, µM (series often up to 130 µM), hits mostly inhibitors; recombinant TDP1, AlphaScreen DNA substrate cleavage; note: nearly all actives have a fitted effect of over 40% in size
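Steps: enzyme plus compound, 15 min RT; add biotin/phosphotyrosine-FITC oligonucleotide (15 nM final), react 5 min; add donor/acceptor beads (10 ug/ml final), 10 min; read AlphaScreen. Tdp1 at 1 nM final.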
Numbers stand for hits; 0 = inactive; ? = inconclusive; - = no result given; [ ] = dose if it differs, or a comment. Only some compounds are listed: those with a hit (about 16% of all), similar ones and a draw of the others. Unless noted, calls come from the whole dose curve; as a rule, active = well fitted curve in the direction sought with a large enough effect; inconclusive = small, poorly fitted or top-dose-only effect, or another doubt; inactive = no such curve, though single readings can be large; an effect the other way counts as inactive or inconclusive.

SMILES	DT40 TDP1 CPT	uPA surface inh	miR-21 reporter	TDP1 cell noCPT	TDP1 inh
Cc1cc(NC(=O)CSc2cn(C)c3ccccc23)no1	0	0	0	0	0
O=C(CCCCC(=O)Nc1ccccc1)Nc1ccccc1	0	0	0	0	-
NNC(=O)CCS(=O)(=O)c1ccc2ccccc2c1	0	0	0	0	0
COc1ccc(N(C(=O)c2cccc(C)c2)S(=O)(=O)c2ccc(Cl)cc2)cc1	18µM	-	0	?	0[12.3 µM]
COc1ccc(NC(=O)Cn2c(=O)n(-c3ccc(CC(=O)NCc4ccco4)cc3)c(=O)c3ccccc32)cc1	0	0	0	0	0
CCOC(=O)COc1ccc(C2C(C(=O)OC)=C(C)NC3=C2C(=O)c2ccccc23)cc1Cl (configuration not stated)	?	-	0	?	-
CCOc1cc(Br)c(C2C(C(=O)OC)=C(C)NC3=C2C(=O)c2ccccc23)cc1OCC (configuration not stated)	4.6µM	-	0	23µM	-
CCOC(=O)C1=C(C)NC2=C(C(=O)c3ccccc32)C1c1cccc2ccccc12 (configuration not stated)	?	0	0	12µM	-
CCOc1cc(C2C(C(=O)OC)=C(C)NC3=C2C(=O)c2ccccc23)c(Br)cc1OC (configuration not stated)	0	-	0	?	-
CCOc1cc(C2C(C(=O)OC)=C(C)NC3=C2C(=O)c2ccccc23)c(Br)cc1O (configuration not stated)	?	-	0	18µM	0
Cc1ccc(C)c(S(=O)(=O)N2CCN(C(=O)[C@@H](NC(=O)c3ccc(F)cc3)C(C)C)CC2)c1	?	0	-	21µM	0
Cc1cccc(C(=O)NCC(=O)N2CCN(S(=O)(=O)c3cc(C)ccc3C)CC2)c1	?	0	-	?	-
Cc1ccc(C)c(S(=O)(=O)N2CCN(C(=O)CNC(=O)c3ccc4ccccc4c3)CC2)c1	?	0	-	16µM	0
O=C(NCC1CCCO1)c1cc([N+](=O)[O-])ccc1N1CCC(Cc2ccccc2)CC1 (configuration not stated)	?	0	-	23µM	0
CCOc1ccc(N(C)C(=O)CCc2nnc3ccc(N4CCOCC4)nn23)cc1	0	0	0	0	0
CC(NC(=O)C(Cc1ccccc1)=NO)c1ccccc1 (configuration not stated)	21µM	0	-	23µM	-
COC(=O)c1ccc(Nc2nc(N3CCOCC3)nc(N3CCOCC3)n2)cc1	?	0	0	0	0
O=[N+]([O-])c1ccc(Nc2nc(N3CCOCC3)nc(N3CCOCC3)n2)cc1	?	0	-	?	-
FC(F)(F)C(Oc1nc(Nc2ccc(Cl)cc2)nc(N2CCOCC2)n1)C(F)(F)F	?	0	0	21µM	0
CC(C)c1ccc(Nc2nc(Nc3ccc(Cl)cc3)nc(N3CCOCC3)n2)cc1	?	-	-	11µM	0
CCOC(=O)N1C/C(=C\c2ccccc2)C(=O)/C(=C/c2ccccc2)C1	4.6µM	0	0	3.7µM	0
CCOC(=O)N1CCN(S(=O)(=O)/C=C/c2ccccc2)CC1	0	0	0	0	0
CN(C)CCC(=O)N1C/C(=C/c2ccccc2)C(=O)/C(=C\c2ccccc2)C1	1.8µM	0	-	1.8µM	-
C[N+](C)(C)CCC(=O)N1C/C(=C/c2ccccc2)C(=O)/C(=C\c2ccccc2)C1	0.65µM	0	-	0.92µM	-
O=C(/C=C/c1ccccc1)CCN1CCOCC1	0.92µM	0	-	1.5µM	-
SMILES	DT40 TDP1 CPT	uPA surface inh	miR-21 reporter	TDP1 cell noCPT	TDP1 inh
COC(C(=O)NC(C(C)C)C(C)C)c1ccccc1 (configuration not stated)	0	0	0	0	0
C/C(=C\c1ccccc1)C(=O)NCCN1CCOCC1	0	0	0	0	0
O=C1/C(=C/c2ccccc2)CN(C(=O)CCN2CCOCC2)C/C1=C\c1ccccc1	1.6µM	0	-	1.8µM	-
COc1ccc(-c2noc(CN3CCN(c4ccccc4)CC3)n2)cc1	?	0	0	0	0
COc1cc(-c2noc(CN3CCN(c4cccc(Cl)c4)CC3)n2)cc(OC)c1OC	16µM	-	0	21µM	0
COc1ccc(-c2noc(CN3CCN(c4ccccc4OC)CC3)n2)cc1OC	21µM	-	0	?	0
COC(=O)c1ccc(CNC(=O)COC(=O)CC23CC4CC(CC(Br)(C4)C2)C3)cc1	0	0	0	0	0
O=C(NCc1ccc(F)cc1)c1cc2c(s1)CCCC2	0	0	0	0	0
Cc1ccc(S(=O)(=O)Nc2cc(C)c(O)c(Sc3n[nH]c(C)n3)c2)cc1	18µM	0	0	?	0
C/C(=N\NC(=O)C(C)n1nc(C)c([N+](=O)[O-])c1C)c1ccccc1O (configuration not stated)	4.1µM	?	?	1.8µM	0
CC(=O)C1CCC2C3CC(C)C4=CC(=O)CCC4(C)C3C(=O)CC12C (configuration not stated)	0	0	-	?	-
COc1ccc(OCC(=O)Nc2c(C(=O)N3CCN(C)CC3)oc3ccccc23)cc1	0	0	0	0	0
CC(C)(C)C(=O)Nc1c(C(=O)N2CCN(c3ccc(F)cc3)CC2)oc2ccccc12	18µM	-	0	15µM	0
Cc1cccc(OCC(=O)Nc2c(C(=O)N3CCN(c4ccccc4F)CC3)oc3ccccc23)c1	?	-	0	18µM	0
CCOCC(=O)Nc1c(C(=O)N2CCN(c3ncccn3)CC2)oc2ccccc12	?	0	0	12µM	0
COc1ccc(OCC(=O)Nc2c(C(=O)N3CCN(c4ccccc4)CC3)oc3ccccc23)cc1	?	-	0	0	0
COc1ccc(N2CCN(C(=O)c3oc4ccccc4c3NC(=O)Cc3cccc(OC)c3)CC2)cc1	?	0	0	?	0
COc1cccc(CC(=O)Nc2c(C(=O)N3CCN(c4ccccc4F)CC3)oc3ccccc23)c1	5.8µM	-	0	4.6µM	0
O=C(Nc1ccc2c(c1)OCCO2)C1CCN(C(=O)c2ccc(Cl)cc2)CC1	0	0	0	?	0
O=C(Nc1c(C(=O)N2CCN(c3ccccc3F)CC2)oc2ccccc12)c1cccc(F)c1	?	-	0	?	0
CC(C)CC(=O)Nc1c(C(=O)N2CCN(c3ccccc3F)CC2)oc2ccccc12	13µM	-	0	10µM	0
CCOC(=O)c1ccc(NC(=O)c2c(NC(C)=O)sc3c2CCC(C)C3)cc1 (configuration not stated)	?	-	0	?	-
COC(=O)c1cc(NC(=O)c2ccc(Cn3cc(Cl)cn3)o2)cc(C(=O)OC)c1	?	0	0	0	0
CCOC(=O)c1c(NC(=S)NC(=O)c2ccc(Cn3cc(Cl)cn3)o2)sc2c1CCC(C)C2 (configuration not stated)	13µM	0	0	8.2µM	0
CCOC(=O)c1c(NC(=O)CSc2nnc(C)s2)sc2c1CCC(C)C2 (configuration not stated)	?	0	0	21µM	0
